# Read-outs that look alike come from different tables or passages of the source.
# Details: 1 mg per mL liver microsome protein, 1 μM, 37° C., vs non-isotopically enriched compound
# [1] = mark in second data column (bin 0%-50%)
SMILES,% increase of HLM degradation half-life [1],% increase of HLM degradation half-life (mark in first data column (bin −25%-0%))
"[2H]c1cc([2H])c(C([2H])([2H])C([2H])([2H])C([2H])([2H])C([2H])([2H])OCCCCCCNCC(O)c2ccc(O)c(CO)c2)c([2H])c1 (stereo not shown) [Example 2, N-(2-Hydroxy-2-(4-hydroxy-3-(hydroxymethyl)phenyl)ethyl)-6-(4-d3-phenyl-d8-butoxy)hexan-1-aminium 1-hydroxy-2-naphthoate]",+ (0%-50%),–
"[2H]c1cc([2H])c(C([2H])([2H])C([2H])([2H])C([2H])([2H])C([2H])([2H])OC([2H])([2H])CCCCC([2H])([2H])NCC(O)c2ccc(O)c(CO)c2)c([2H])c1 (stereo not shown) [Example 4, N-(2-Hydroxy-2-(4-hydroxy-3-(hydroxymethyl)phenyl)ethyl)-6-(4-d3-phenyl-d8-butoxy)-d4-hexan-1-aminium 1-hydroxy-2-naphthoate]",+ (0%-50%),–
"OCc1cc(C(O)CNCCCCCCOCCCCc2ccccc2)ccc1O (stereo not shown) [Example 1, N-(2-Hydroxy-2-(4-hydroxy-3-(hydroxymethyl)phenyl)ethyl)-6-(4-phenylbutoxy)hexan-1-aminium 1-hydroxy-2-naphthoate, reference compound]",–,+ (−25%-0%)
"[2H]c1cc([2H])c(C([2H])([2H])C([2H])([2H])C([2H])([2H])C([2H])([2H])OC([2H])([2H])CCCCCNCC(O)c2ccc(O)c(CO)c2)c([2H])c1 (stereo not shown) [Example 3, N-(2-Hydroxy-2-(4-hydroxy-3-(hydroxymethyl)phenyl)ethyl)-6-(4-d3-phenyl-d8-butoxy)-d2-hexan-1-aminium 1-hydroxy-2-naphthoate]",+ (0%-50%),–

# — patent US20100009950A1, “SUBSTITUTED ETHANOLAMINES” (AUSPEX PHARMACEUTICALS, INC., priority 2008, published 2010)
